Assay [1] concerns the target His8-tagged Lrp6 BP1-2 (Lrp6 extracellular beta-propeller domains 1 and 2) (UniProt O75581). Put plainly: AlphaScreen homologous competition: unlabeled MBP-Norrin against biotinylated MBP-Norrin on His8-Lrp6 BP1-2, normalized. On the technique in general: Alpha assays give light when donor and acceptor beads are brought close together.
The target is the same in assay [2]. Put plainly: homologous competition, normalized values (FIG. 4C).
Assay [3] has as its target full-length human Fz4 receptor expressed on transfected cells (human) (UniProt Q9ULV1). Put plainly: cell-based or functional assay.
Assay [4] concerns the target His8-tagged Lrp6 BP1-2 (Lrp6 extracellular beta-propeller domains 1 and 2) (UniProt O75581). Put plainly: comparison of the filing's own affinities (Lrp5/6 BP1-2 against Fz4).
The target in assay [5] is Fz4-FcH6 (human Frizzled 4 CRD, residues 40-164, fused to Fc and His6 tags) (human) (UniProt Q9ULV1). Put plainly: AlphaScreen; competes biotin-MBP-Norrin on Fz4-Fc-H6.
Assay [6] deals with His8-tagged Lrp6 BP1-2 (Lrp6 extracellular beta-propeller domains 1 and 2) (UniProt O75581). Briefly: AlphaScreen; competes biotin DKK1 peptide on H8-Lrp6 BP1-2.
Assay [7] shares this target. Put plainly: homologous competition against biotinylated MBP-Norrin on Lrp6 BP1-2 (FIG. 4B, 4C); IC50 of the homologous competition.
In assay [8] the target is Fz4-FcH6 (human Frizzled 4 CRD, residues 40-164, fused to Fc and His6 tags) (human) (UniProt Q9ULV1). Briefly: AlphaScreen saturation binding to Fz4-FcH6.

The chains behind the UniProt entries cited, without tags or fusion partners. A line that says so, or that is headed by a name, gives the form on record, which may keep a tag or linker. Residues count along the entry.
UniProt O75581, 20-631 limits assumed: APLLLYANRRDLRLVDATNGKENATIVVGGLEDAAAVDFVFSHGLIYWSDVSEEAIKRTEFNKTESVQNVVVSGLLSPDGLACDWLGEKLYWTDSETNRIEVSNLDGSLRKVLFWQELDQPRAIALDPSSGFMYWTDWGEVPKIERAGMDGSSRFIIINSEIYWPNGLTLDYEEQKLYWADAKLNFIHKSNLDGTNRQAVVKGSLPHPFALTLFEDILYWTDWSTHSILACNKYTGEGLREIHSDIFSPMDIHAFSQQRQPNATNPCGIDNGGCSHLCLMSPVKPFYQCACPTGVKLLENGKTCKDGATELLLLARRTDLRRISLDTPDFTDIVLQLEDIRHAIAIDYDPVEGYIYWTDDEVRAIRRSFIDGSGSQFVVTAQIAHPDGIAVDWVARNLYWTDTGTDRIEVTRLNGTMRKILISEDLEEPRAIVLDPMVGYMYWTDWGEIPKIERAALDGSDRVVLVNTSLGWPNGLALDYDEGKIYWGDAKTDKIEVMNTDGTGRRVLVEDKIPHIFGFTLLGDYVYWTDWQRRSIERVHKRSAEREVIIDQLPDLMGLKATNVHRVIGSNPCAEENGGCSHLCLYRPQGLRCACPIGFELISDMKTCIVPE
UniProt Q9ULV1, 37-537: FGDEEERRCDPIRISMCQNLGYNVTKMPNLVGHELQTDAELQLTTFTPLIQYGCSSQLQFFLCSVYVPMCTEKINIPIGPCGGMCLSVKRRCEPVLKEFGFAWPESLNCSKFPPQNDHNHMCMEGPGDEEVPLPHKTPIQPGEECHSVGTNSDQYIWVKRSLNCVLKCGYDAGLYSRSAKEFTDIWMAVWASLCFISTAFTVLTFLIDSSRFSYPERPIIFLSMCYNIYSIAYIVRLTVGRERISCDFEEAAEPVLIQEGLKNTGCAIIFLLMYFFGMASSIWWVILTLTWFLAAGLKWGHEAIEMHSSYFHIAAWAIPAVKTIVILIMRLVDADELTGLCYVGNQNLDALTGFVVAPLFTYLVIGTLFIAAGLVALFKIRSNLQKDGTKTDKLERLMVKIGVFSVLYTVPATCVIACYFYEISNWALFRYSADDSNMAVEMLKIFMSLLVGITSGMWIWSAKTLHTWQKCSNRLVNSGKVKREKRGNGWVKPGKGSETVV
UniProt Q9ULV1, 40-164, form in doubt: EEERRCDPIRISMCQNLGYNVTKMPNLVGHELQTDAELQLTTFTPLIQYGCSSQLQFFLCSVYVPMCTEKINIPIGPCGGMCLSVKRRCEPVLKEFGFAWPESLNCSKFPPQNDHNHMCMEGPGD

By IC50 is commonly meant the concentration that inhibits the measured activity by half. A high value points to lower potency. The term EC50 (read off the curve) denotes the midpoint of the concentration-response curve. Read a high EC50 (read off the curve) as a less potent agent.

Several values for one entry are separate records, joined by “and”; a condition that tells them apart may be missing. Identical values can stand only once.

In assay [1], “MBP-Norrin (maltose binding protein fused to the N-terminus of human Norrin residues 25-133, wild-type) (ligand)” yielded an IC50 (read off the curve) of 500 to 600 nM. For the same substance, the IC50 in assay [2] amounted to 566 nM; in assay [5], 34 nM; in assay [6], 72 nM; in assay [7] it was 570 nM. Moreover, the EC50 of TCF reporter activation (cells cotransfected with Fz4 and Lrp5) in assay [3] is 6 nM and 0.6 µg/ml. Besides, in assay [3], the TCF reporter activity of 293STF cells cotransfected with Fz4 and Lrp5 was found to be 6 fold. Moreover, in assay [3], the TCF reporter activity of 293STF cells transfected with full-length Fz4 turned out to be 2 fold. Also, the fold lower affinity than Norrin-Fz4 interactions in assay [4] is above 40 fold.

As to biotinylated MBP-Norrin (ligand), in assay [8], the EC50 (read off the curve) stood at 10 nM.

These data come from patent publication US20150376252A1.
